Here are results for three compounds from US9744173B2, “2-amino 6-methyl-4,4a,5,6-tetrahydropyrano[3,4-d][1,3]thiazin-8a(8H)-yl-1,3-thiazol-4-yl amides” (Pfizer Inc., priority 2014, dated 2017).

By UniProt entry, the sequences of proteins in these tests, tags left out. Residues count along the entry.
UniProt P56817, 46-457 limits assumed: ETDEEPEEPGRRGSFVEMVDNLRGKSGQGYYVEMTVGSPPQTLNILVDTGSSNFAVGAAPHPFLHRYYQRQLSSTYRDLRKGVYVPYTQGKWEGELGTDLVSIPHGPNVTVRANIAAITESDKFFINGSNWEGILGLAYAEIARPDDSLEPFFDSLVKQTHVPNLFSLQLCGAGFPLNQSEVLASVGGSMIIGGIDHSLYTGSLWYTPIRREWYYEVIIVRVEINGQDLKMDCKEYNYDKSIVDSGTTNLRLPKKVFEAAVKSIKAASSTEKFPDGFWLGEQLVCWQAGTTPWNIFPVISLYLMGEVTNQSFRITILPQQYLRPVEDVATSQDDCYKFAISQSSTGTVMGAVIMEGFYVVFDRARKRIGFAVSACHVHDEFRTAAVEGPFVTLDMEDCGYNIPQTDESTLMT

Data set [1] in a line: HLM Clint (clearance in human liver microsomes). The class given is in vitro ADME. (In general: Liver microsomes are a subcellular fraction often used to study metabolism.)
A short description of another data set: pKa. The class given is physicochemical. To be noted: Measurement determined at Analyza.
The test system of data set [2] is sAPPβ in H4 human neuroglioma cells over-expressing the wild-type human APP695. In words: sAPPβ Whole-Cell Assay (WCA). The class given is cell-based. Particulars: read-out: sAPPβ Whole Cell IC50, 18 h.
The nature of the next data set: GSH Incubation Assay. The class given is in vitro ADME. Particulars: incubation in human liver microsomes in the presence of GSH.
For a further data set, the target named is BACE1 (Homo sapiens (Human), UniProt P56817). Nature of the data set: BACE1 Cell-Free Assay (fluorescence polarization). Format: biochemical. To be noted: read-out: BACE1 Cell Free IC50; Table 4.

The pKa is the pH at which an ionisable group is half protonated. Low readings indicate a stronger acid or weaker base, high ones a weaker acid or stronger base. What is called IC50 is the concentration that gives 50% inhibition. Regarding `C[C@H]1C[C@H]2CSC(N)=N[C@@]2(c2cc(NC(=O)c3ccc(OC(F)F)cn3)ccc2F)CO1` [Comparator 4], the “HLM CLint” value in data set [1] is 8.3 mL/min/kg. Besides, the pKa in “pKa” amounted to 8.2. In addition, the IC50 in data set [2] is under 0.001 µM.
Turning to `C[C@H]1C[C@H]2CSC(N)=N[C@@]2(c2cc(NC(=O)c3ccc(C#N)cn3)cs2)CO1`, the “formation of GSH adducts” value in the data set “GSH Incubation Assay” is “showed the formation of chemical adducts”.
On to `C[C@H]1C[C@H]2CSC(N)=N[C@@]2(c2ncc(NC(=O)c3ccc(OC(F)F)cn3)s2)CO1`, for which the “HLM CLint” value in data set [1] was under 8 mL/min/kg. Further, the IC50 at BACE1 was over 100 µM. The same compound gave a pKa in the data set “pKa” of 7.
